## Antibody variant affinities, Ab-14 light chain, assay 1

Target peptide (SARS-CoV-2 spike, HR2 region): PDVDLGDISGINAS

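Phage display of a naive human antibody library on the peptide gave the parent. In library AAYL50, one, two or three CDR residues were substituted; doubles and triples were drawn at random. The assay is AlphaSeq: two haploid yeast populations carry antibody and antigen on their surface. After mating in shaken culture at 30 °C for 16 h, diploids were selected and their barcode pairs sequenced. Each replicate has its own calibration line, from reference interactions of the BCL2 family. Mating was done three times.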

Ab-14 is the parent antibody, in scFv form: VH, then the linker GGGGSGGGGSGGGGS, then VL. The heavy chain is unchanged in all variants.
VH: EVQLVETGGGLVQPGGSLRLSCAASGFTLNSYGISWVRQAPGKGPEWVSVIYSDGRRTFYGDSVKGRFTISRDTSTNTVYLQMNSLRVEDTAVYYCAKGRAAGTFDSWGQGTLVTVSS
VL: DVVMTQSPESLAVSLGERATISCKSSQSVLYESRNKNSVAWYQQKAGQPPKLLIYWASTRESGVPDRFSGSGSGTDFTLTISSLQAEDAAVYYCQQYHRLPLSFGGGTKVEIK

Positions count from residue 1 of the parent VL; R60T puts T in place of R. All variants listed here change S103 of the VL, counted from its first residue. Values are apparent Kd, the geometric mean of the replicates that gave a signal; lower means stronger binding. Where no diploid with the target was found in any replicate, the entry reads "nd": below detection, most likely a poor binder, though not proof of it. As a blank, each scFv also met three strains without target: over library AAYL50, 18% of these pairings were detected, typically at 15 µM and seldom below 970 nM. In this assay the parent's reference entry averaged 4.4 nM; its copy inside this library read 48 nM.

For R60T+L100E+S103W, the assay gave nd (0 of 3 replicates). Variant E32H+S103Q gave 31 nM (3 of 3 replicates). With K24Y+L100G+S103M the result was 130 nM (3 of 3 replicates). With R34N+H98L+S103G the result was nd (0 of 3 replicates). Variant A40M+P101W+S103P showed nd (0 of 3 replicates).

For S33N+T59A+S103D, the assay gave 23 nM (3 of 3 replicates). For R60F+S103E, the assay gave nd (0 of 3 replicates). Variant E32D+A57W+S103A showed nd (0 of 3 replicates). For Y31H+Q96M+S103H, the assay gave 7.8 nM (3 of 3 replicates). With S26Y+V39D+S103N the result was 100 µM (1 of 3 replicates).

For Q27E+E32T+S103F, the assay gave 280 nM (3 of 3 replicates). For Q27N+S38F+S103L, the assay gave 21 µM (2 of 3 replicates). With V39Y+L102N+S103G the result was nd (0 of 3 replicates). Variant S26R+S58H+S103F gave 33 nM (3 of 3 replicates). With S28N+Q96I+S103Y the result was 380 nM (3 of 3 replicates).

Variant S33E+S58G+S103G showed 1.0 µM (3 of 3 replicates). Variant V29K+R99L+S103C gave 48 nM (3 of 3 replicates). With N37L+A40F+S103Q the result was nd (0 of 3 replicates). Variant S33Q+A57D+S103Q gave 2.4 µM (2 of 3 replicates). With S58H+Y97P+S103I the result was 67 nM (3 of 3 replicates).

With Q27G+Y31M+S103Y the result was 22 nM (3 of 3 replicates). Variant S33K+A40T+S103A gave 33 µM (2 of 3 replicates). With S26F+P101N+S103Q the result was nd (0 of 3 replicates). Variant K24R+Q96P+S103D gave nd (0 of 3 replicates). Variant R60Y+Q96T+S103G gave nd (0 of 3 replicates).

Variant R34K+R99Q+S103K showed 210 nM (3 of 3 replicates). Variant K24L+S62I+S103G showed 18 nM (3 of 3 replicates). Variant E32F+P101G+S103Y gave 92 µM (2 of 3 replicates). With Q27Y+N37D+S103N the result was nd (0 of 3 replicates). For S38G+W56Y+S103M, the assay gave 360 nM (3 of 3 replicates).

For R34W+W56E+S103I, the assay gave 5.6 nM (3 of 3 replicates). For Q27T+R34M+S103G, the assay gave 18 nM (3 of 3 replicates). For Q27C+S103F, the assay gave 18 nM (3 of 3 replicates). Variant L30N+H98T+S103E gave 4.0 nM (3 of 3 replicates). Variant S33P+S103A gave nd (0 of 3 replicates).

For S25W+E32N+S103D, the assay gave 230 nM (3 of 3 replicates). With S33H+N35K+S103R the result was nd (0 of 3 replicates). Variant A40P+H98C+S103P gave 40 µM (1 of 3 replicates). Variant S58N+H98M+S103N gave nd (0 of 3 replicates).

Again, the first 5 entries without any signal:

changes,Kd,seen in
R60T+L100E+S103W,nd,0 of 3
R34N+H98L+S103G,nd,0 of 3
A40M+P101W+S103P,nd,0 of 3
R60F+S103E,nd,0 of 3
E32D+A57W+S103A,nd,0 of 3

From the AlphaSeq antibody data of Engelhart et al. 2022 (doi:10.1038/s41597-022-01779-4), copy in the FLAb collection.